Molecular target: Melanin-concentrating hormone receptor 1 (Homo sapiens, UniProt Q99705)
Assay: Displacement of [125I]MCH from MCHR1 expressed in CHO cells
Format: cell-based
Outline: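 Human MCH R1, CHO cell membranes (0.1 mg/mL) on SPA beads (1 mg/mL). Buffer: 25 mM HEPES, 10 mM MgCl2, 5 mM MnCl2, 0.1% BSA, pH 7.4. Incubation 2–4 h at room temperature, scintillation count. Ki by non-linear regression; mean ± range of two determinations, each in quadruplicate.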

The chains behind the UniProt entries cited, without tags or fusion partners. Where a name states a change or a piece, a line headed by the entry shows the natural chain unless it says otherwise.
UniProt Q99705: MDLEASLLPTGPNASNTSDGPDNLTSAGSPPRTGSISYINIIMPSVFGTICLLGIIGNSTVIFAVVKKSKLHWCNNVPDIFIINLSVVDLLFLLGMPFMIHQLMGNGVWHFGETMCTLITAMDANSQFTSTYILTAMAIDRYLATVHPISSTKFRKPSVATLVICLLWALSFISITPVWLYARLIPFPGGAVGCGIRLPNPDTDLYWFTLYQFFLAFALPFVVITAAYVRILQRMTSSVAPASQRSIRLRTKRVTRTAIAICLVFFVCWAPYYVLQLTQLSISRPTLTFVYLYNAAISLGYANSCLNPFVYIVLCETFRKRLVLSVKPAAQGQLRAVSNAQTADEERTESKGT

Compound | Ki
N#Cc1cccc([C@]23CC[C@@H](N(CC4CCN(C5CCOCC5)CC4)C(=O)Nc4ccc(F)c(Cl)c4)CC2C3)c1 (stereo partly drawn) | 8.7 nM
N#Cc1cccc([C@]23CC[C@@H](N(CCN4CCC[C@@H]4CO)C(=O)Nc4ccc(F)c(Cl)c4)CC2C3)c1 (stereo partly drawn) | 15 nM
COC(=O)c1cccc([C@]23CC[C@@H](N(CCN(C(C)C)C(C)C)C(=O)Nc4ccc(F)c(F)c4)CC2C3)c1 (stereo partly drawn) | 34 nM
